Test results: patent publication US20160193231A1, “RETT SYNDROME AND TREATMENTS THEREFORE” (RETT SYNDROME RESEARCH TRUST, priority 2013, published 2016)
Some compounds may have been tested in ways that are not shown here.

Columns and labels:
[1] = test system: 129.Mecp2^tm1.1Bird/Y mice; assay: Accelerating rotarod task, Mecp2 null males; assay type: in vivo, mouse; details: Example 6/FIG. 10; 5 mg/kg IP 2x weekly
[2] = test system: 129.Mecp2^tm1.1Bird/Y mice; assay: Open field locomotor activity, Mecp2 null males; assay type: in vivo, mouse; details: Example 6/FIG. 10; 5 mg/kg IP 2x weekly

Structure (SMILES): COc1ccc([N+](=O)[O-])cc1[N+](=O)[O-]
- performance in the rotarod assay [1]: significantly improved performance
- performance in the OFA assay [2]: significantly improved performance
